Target: β2-monomeric yellow fluorescent protein (β2-mYFP)
Experiment: FRET or BRET

Substance: αM-monomeric cyan fluorescent protein (αM-mCFP) (from UniProt P11215 17-1152) (receptor)
- FRET efficiency: 0.2
